The target in the test is Nanoluciferase-BRD9 fusion protein (3×FLAG-NLuc-BRD9) in SYO-1 cells (Homo sapiens, UniProt Q9H8M2). As to the kind of experiment: SYO1 BRD9 NanoLuc degradation assay. To be noted: read-out: SYO1 BRD9-NanoLuc degradation IC50, Table 6C, SYO-1 cells expressing 3×FLAG-NLuc-BRD9, 6 hours incubation, 1 μM top dose.

Protein sequences, listed by entry. Tags and fused reporters are not part of them.
UniProt Q9H8M2, whole entry: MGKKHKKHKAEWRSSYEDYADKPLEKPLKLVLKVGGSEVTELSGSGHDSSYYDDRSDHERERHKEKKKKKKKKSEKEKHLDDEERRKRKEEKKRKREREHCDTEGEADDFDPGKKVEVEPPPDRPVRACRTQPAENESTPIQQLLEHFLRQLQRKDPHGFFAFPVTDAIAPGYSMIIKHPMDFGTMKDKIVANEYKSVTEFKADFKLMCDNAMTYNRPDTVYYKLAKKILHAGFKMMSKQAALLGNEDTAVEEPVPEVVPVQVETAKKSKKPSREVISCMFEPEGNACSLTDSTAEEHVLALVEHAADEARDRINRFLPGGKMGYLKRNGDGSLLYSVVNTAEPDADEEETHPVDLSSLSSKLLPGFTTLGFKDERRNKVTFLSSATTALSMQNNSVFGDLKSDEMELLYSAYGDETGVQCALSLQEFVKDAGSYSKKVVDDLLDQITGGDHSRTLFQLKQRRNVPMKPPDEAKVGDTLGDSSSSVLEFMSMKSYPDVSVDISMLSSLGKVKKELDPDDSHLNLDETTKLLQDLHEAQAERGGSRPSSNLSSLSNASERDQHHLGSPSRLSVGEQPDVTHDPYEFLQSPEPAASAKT

The text below walks through data of US12686687B2, “Compounds and uses thereof” (Foghorn Therapeutics Inc., priority 2019, dated 2026).

Read-outs that look alike come from different tables or passages of the source.

The term IC50 denotes the midpoint of a concentration-inhibition curve. On to `COc1cc(-c2cn(C)c(=O)c3ncoc23)cc(OC)c1CN1CCC2(CC1)CN(c1ccc3c(c1)C(=O)N(C1CCC(=O)NC1=O)C3)C2` (centres unmarked), for which the IC50 (tested form: formate) is below 0.01 µM.

For `COc1cc(-c2cn(C)c(=O)c3ccoc23)cc(OC)c1CN1CC(CN2CCC3(CC2)CN(c2ccc4c(c2)C(=O)N(C2CCC(=O)NC2=O)C4)C3)C1` (centres unmarked), the IC50 is below 0.01 µM.

As for `COc1cc(-c2cn(C)c(=O)c3occc23)cc(OC)c1CN1CCC2(CC1)CN(c1ccc3c(c1)C(=O)N(C1CCC(=O)NC1=O)C3)C2` (centres unmarked), the IC50 was below 0.01 µM.

On to `COc1cc(-c2cn(C)c(=O)c3ncoc23)cc(OC)c1CN1CC(CN2CCC3(CC2)CN(c2ccc4c(c2)C(=O)N(C2CCC(=O)NC2=O)C4)C3)C1` (centres unmarked), for which the IC50 is above 0.01 µM.

On to `COc1cc(-c2cn(C)c(=O)c3ccsc23)cc(OC)c1CN1CCN(c2ccc3c(c2)CN(C2CCC(=O)NC2=O)C3=O)CC12CCC2` (centres unmarked), for which, under “tested form: TFA”, the IC50 is below 0.01 µM.
